Data reported in ChEMBL document CHEMBL4196195, “( R)- N-(1-Methyl-2-hydroxyethyl)-13-( S)-methyl-arachidonamide (AMG315): A Novel Chiral Potent Endocannabinoid Ligand with Stability to Metabolizing Enzymes” (J Med Chem, 2018).

Chains of the proteins cited; added tags and fusions are not shown.
UniProt P20272, whole entry: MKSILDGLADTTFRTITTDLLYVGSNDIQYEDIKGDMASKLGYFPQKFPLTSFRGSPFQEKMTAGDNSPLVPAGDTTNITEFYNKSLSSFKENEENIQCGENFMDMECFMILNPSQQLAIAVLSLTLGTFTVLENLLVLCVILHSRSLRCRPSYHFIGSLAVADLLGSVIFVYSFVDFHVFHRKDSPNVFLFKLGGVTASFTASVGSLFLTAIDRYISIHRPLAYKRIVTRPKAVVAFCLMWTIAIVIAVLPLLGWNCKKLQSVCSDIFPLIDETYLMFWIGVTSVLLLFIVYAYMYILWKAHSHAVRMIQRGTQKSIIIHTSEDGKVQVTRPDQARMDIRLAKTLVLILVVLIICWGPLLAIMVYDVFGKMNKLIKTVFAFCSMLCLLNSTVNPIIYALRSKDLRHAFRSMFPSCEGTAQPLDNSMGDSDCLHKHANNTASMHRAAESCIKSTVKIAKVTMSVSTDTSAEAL

How the values were obtained:
Cannabinoid receptor 1 [1] = molecular target: T1, Cannabinoid receptor 1 (Rattus norvegicus, UniProt P20272); experiment: Displacement of [3H]CP-55,940 from CB1 receptor in rat brain membranes in absence of FAAH inhibitor PMSF by radioligand binding assay; type: cell membranes, Membrane
How it was run: (§1)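 Rat brain membranes, tested either pretreated with PMSF to block amidase activity or untreated, competing against [3H]CP-55,940. IC50 by nonlinear regression, converted to Ki. Three independent experiments run in triplicate; Ki is the mean of the three. Untreated-membrane incubation 1 h at 30 °C.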

Cannabinoid receptor 1 [2] = molecular target: T1, Cannabinoid receptor 1; experiment: Displacement of [3H]CP-55,940 from CB1 receptor in rat brain membranes in presence of FAAH inhibitor PMSF by radioligand binding assay; type: cell membranes, Membrane; how it was run: as §1
Cannabinoid receptor 1 [3] = molecular target: T1, Cannabinoid receptor 1; experiment: Agonist activity at rat CB1 receptor expressed in HEK293 cells assessed as inhibition of forskolin-induced cAMP accumulation incubated for 30 mins; type: functional, cell-based
How it was run: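 HEK293 cells stably expressing rCB1, harvested with nonenzymatic dissociation reagent, washed in HBSS, 1000–1500 cells/well. Test compound at various concentrations with forskolin (2 μM final) in stimulation buffer, 30 min at room temperature. cAMP read by TR-FRET (Eu-cAMP tracer plus ULight anti-cAMP, 60 min room temperature). Forskolin-stimulated cAMP set to 100%. EC50 from nonlinear regression; two independent experiments in triplicate.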

Structure (SMILES) | Ki (Cannabinoid receptor 1 [1]) [nM] | Ki (Cannabinoid receptor 1 [2]) [nM] | EC50 (Cannabinoid receptor 1 [3]) [nM]
CCCCC/C=C\C/C=C\C/C=C\C/C=C\CCCC(=O)NCCO [ANANDAMIDE] | > 1000 | 74 | 69
CCCCC/C=C\C/C=C\C/C=C\C/C=C\CCCC(=O)N[C@H](C)CO [METHANANDAMIDE] | 72 | 37 | 
